System: EpiDerm™ skin tissues
Test: reconstructed skin micronucleus
Format: cell-based, human

## CO[C@@]12[C@H](COC(N)=O)C3=C(C(=O)C(C)=C(N)C3=O)N1C[C@@H]1N[C@@H]12 [MMC, mitomycin C]
Positive control 0.05 µg/cm^2, three treatments over 72 h
  MN formation (% MN-BN): highly significant increases in MN formation
Positive control 0.05 µg/cm^2, two treatments over 48 h
  MN formation (% MN-BN): highly significant increases in MN formation
